The test has as its target Sodium- and chloride-dependent GABA transporter 1 (Homo sapiens, UniProt P30531). Description: Binding affinity to GAT1.

Sequences of proteins named here, by UniProt entry; tags and fusion partners are left off. A change or cut given only in a name is not applied to a line headed by its entry.
UniProt P30531: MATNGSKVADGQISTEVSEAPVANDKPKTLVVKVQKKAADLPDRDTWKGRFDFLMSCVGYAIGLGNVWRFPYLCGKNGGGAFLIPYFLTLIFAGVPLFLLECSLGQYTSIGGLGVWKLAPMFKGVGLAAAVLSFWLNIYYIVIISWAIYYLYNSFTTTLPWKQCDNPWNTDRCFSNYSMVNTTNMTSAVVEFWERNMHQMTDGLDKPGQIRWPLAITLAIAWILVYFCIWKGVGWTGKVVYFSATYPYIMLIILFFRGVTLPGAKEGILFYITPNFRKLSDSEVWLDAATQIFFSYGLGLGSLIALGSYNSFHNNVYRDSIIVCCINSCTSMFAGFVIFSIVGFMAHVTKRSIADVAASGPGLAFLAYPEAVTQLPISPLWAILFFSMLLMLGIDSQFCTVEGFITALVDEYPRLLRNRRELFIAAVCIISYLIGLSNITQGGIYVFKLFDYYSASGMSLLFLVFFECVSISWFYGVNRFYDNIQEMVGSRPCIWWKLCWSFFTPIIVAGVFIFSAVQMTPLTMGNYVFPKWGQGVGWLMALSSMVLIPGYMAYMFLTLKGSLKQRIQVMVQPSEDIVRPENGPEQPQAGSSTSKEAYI

Compound `O=C(O)C1CCCN(CCC=C(c2ccccc2)c2ccccc2)C1` (stereo unspecified) displayed an IC50 of 200 nM.

In general, IC50 refers to the concentration that inhibits the measured activity by half. A low value points to higher potency.

Source of the values: ChEMBL document CHEMBL1165889, “Azetidine derivatives as novel gamma-aminobutyric acid uptake inhibitors: synthesis, biological evaluation, and structure-activity relationship” (Eur J Med Chem, 2010).
